scFv variants of Ab-14 (light chain) against a SARS-CoV-2 spike peptide

Source: Li et al. 2023 (doi:10.1038/s41467-023-39022-2), MIT Lincoln Laboratory and A-Alpha Bio; data file from the FLAb repository.

Antigen: PDVDLGDISGINAS, a 14-residue peptide of the SARS-CoV-2 spike HR2 region.

Ab-14 is the parent antibody, in scFv form: VH, then a (GGGGS)3 linker, then VL. The heavy chain is unchanged in all variants.
VH: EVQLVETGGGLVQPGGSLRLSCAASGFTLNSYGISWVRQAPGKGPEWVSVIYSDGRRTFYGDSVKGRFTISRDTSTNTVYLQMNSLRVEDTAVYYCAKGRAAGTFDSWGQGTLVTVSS
VL: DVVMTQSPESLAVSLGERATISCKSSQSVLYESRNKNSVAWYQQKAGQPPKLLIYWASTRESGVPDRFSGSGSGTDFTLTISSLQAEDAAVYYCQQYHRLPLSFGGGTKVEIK

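Phage display of a naive human antibody library on the peptide gave the parent. Designed CDR sequences, proposed from the first random library and measured here. Several design methods are mixed in this list. In AlphaSeq, yeast of one mating type display the scFv and yeast of the other type display the target. The frequency of each diploid, read from paired DNA barcodes, reflects how well the two displayed proteins bind. Scores were corrected for input abundance and mapped to Kd with protein pairs of known affinity run in the same pool. There are six technical replicates.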

Variants are written as CDR1, CDR2 and CDR3 of the light chain (limits as in the source). Parent: KSSQSVLYESRNKNSVA, WASTRES, QQYHRLPLS. Scale: log10 of Kd in nM, estimated from mating counts; low values are strong binders. Averages over replicates are reported, and they cover detected replicates only. "nd" marks a missing value. The strain was present, yet no cells mated with the target were sequenced in any replicate, which points to weak or no binding. The list is sorted by this average, lowest first, undetected variants last. In the paper, a design with two or fewer of six values counts as a poor binder. A sequence measured in both rounds can read differently, since the two assays cover different ranges. The parent sequence was in this pool as ten entries: three were never detected, three once, and four in most replicates, with averages from 0.34 to 2.37. Nonspecific signal, from three strains lacking the peptide, appeared in 4% of pairings of all light chain designs, centred on 2.64 (5% of these signals below 1.59); values are not corrected for it. The control count says in how many pairings with the empty strains this scFv gave a signal.

| CDR-L1 | CDR-L2 | CDR-L3 | mean log10 Kd (nM) | replicates with signal | control signals |
|---|---|---|---|---|---|
| KISQSVLYESRNKNNVA | GASTRES | QQYHRLPLS | -0.67 | 6 of 6 | 0 of 18 |
| QLEVFPLQGGSTTQSIA | DASHRTP | QQYSRLPLV | -0.42 | 6 of 6 | 0 of 18 |
| KLSQSVLYESRNKNSVA | EANTRES | QQYHRLPLS | -0.38 | 6 of 6 | 2 of 18 |
| KVSQSFLYESRNKNNVA | GASTRES | QQYHRLPLS | -0.30 | 6 of 6 | 1 of 18 |
| KVSQQHLYESRNKNSVA | NASTRES | QQYHRLPLS | -0.25 | 6 of 6 | 0 of 18 |
| KLSQSMLYESRNKNAVA | NASTRES | QQYHRLPLS | -0.16 | 6 of 6 | 2 of 18 |
| KSSISYLYESRNPNSVA | EASYRES | QQYHRLPLS | -0.12 | 6 of 6 | 0 of 18 |
| KVSQSVLQESRNKNSVA | DASIRES | QQYHRLPLS | -0.12 | 6 of 6 | 1 of 18 |
| KLYFSEEYESRNKNSVA | SASQRES | QQYHRLPLS | -0.11 | 6 of 6 | 1 of 18 |
| KLMPSVLYESRNKNSVA | NASYREQ | QQYHRLPLS | -0.09 | 6 of 6 | 2 of 18 |
| KLTMVTGTEKVRGNNVA | EMETREN | QQYNRLPLA | -0.08 | 6 of 6 | 1 of 18 |
| KSSPSELYESHNKNSVA | NASTRMS | QQYHRLPLS | -0.07 | 6 of 6 | 0 of 18 |
| KVSQSVLYESRNKNSVA | QASTRES | QQYHRLPLM | -0.03 | 6 of 6 | 0 of 18 |
| KSSQSVLYESRNKNSVA | QASTRED | QQYHRLPLS | 0.03 | 5 of 6 | 0 of 18 |
| FLSQSWDYEDRPKNSVA | NASTRMS | QQYHRLPLS | 0.05 | 6 of 6 | 1 of 18 |
| KFSQKVLYEHRTKNSVA | NASTRES | QQYHRLPLS | 0.09 | 6 of 6 | 5 of 18 |
| KLSQSTLYESRMKNSVA | NASTRLS | QQYHRLPLS | 0.12 | 6 of 6 | 1 of 18 |
| KISQSWLYESRNSNSVA | EASTREL | QDYHRLPLS | 0.13 | 6 of 6 | 3 of 18 |
| KVLQSVLYESRNFNSVA | HASTRED | QQYHRLPLS | 0.15 | 6 of 6 | 1 of 18 |
| KLQQQTEYETRNKNSVA | WASTREE | QQYHRLPLS | 0.21 | 6 of 6 | 2 of 18 |
| KVSQSQLYESRMKQSVA | NASQRES | QQYHRLPLS | 0.26 | 6 of 6 | 1 of 18 |
| KLQQSQGYESRNKNSVA | HASTRES | QQYHRLPLS | 0.26 | 6 of 6 | 0 of 18 |
| KVSDSMAFLSRNRNSVA | DNSTRGS | QQYHRLPLS | 0.35 | 6 of 6 | 3 of 18 |
| IISQVDAYELRNKNSIA | DQSTRGS | QQYDRLPLS | 0.40 | 6 of 6 | 0 of 18 |
| KSSQSWEYESRNKNSVA | GGSTRES | QAYHRLPLS | 0.41 | 6 of 6 | 1 of 18 |
| KSSWSVLFESRNKNSVA | NASTRES | QQYHRLPLS | 0.44 | 6 of 6 | 0 of 18 |
| KSSMSWEYESRNSNSVA | HASTREL | QQYHRLPLI | 0.50 | 6 of 6 | 1 of 18 |
| KLSSSWLYEQRNVNSVA | QASQRLR | QQYHRLPLS | 0.53 | 6 of 6 | 0 of 18 |
| KFSQSKEMVNKEGESIA | GSHTIQE | QQYSRLPLA | 0.57 | 6 of 6 | 1 of 18 |
| KSYISNLYESRNKNSVA | EASTRES | QQYHRLPLS | 0.62 | 6 of 6 | 0 of 18 |
| KLQWSWLYMSRNCNSVA | DASQRES | QQYHRLPLS | 0.64 | 6 of 6 | 1 of 18 |
| KLVNFMNRGTHNTSNIA | DAQNRSD | QQYARLPLA | 0.78 | 6 of 6 | 1 of 18 |
| TLSMVTGHMSVSKNNVA | EMETREE | QQYDRLPLS | 0.89 | 6 of 6 | 1 of 18 |
| KISQMSNIESITHNSVA | QTSTRES | QQYDRLPLS | 0.97 | 6 of 6 | 0 of 18 |
| MLSLNLHDMDANINNVA | EMNKLTA | QDYHRLPLA | 1.01 | 6 of 6 | 0 of 18 |
| KISQNMGETQRNKNSVA | EVSLVPS | QQYWRLPLS | 1.10 | 6 of 6 | 0 of 18 |
| STTSHEEESKGAHASVA | EASMLES | QQYHRLPLD | 1.23 | 4 of 6 | 0 of 18 |
| MMSQVTGLGQRHRNNVA | QTETREE | QQYDRLPLV | 1.24 | 6 of 6 | 1 of 18 |
| KLSQSWWGEWRNKNSVA | HASTREQ | QDYHRLPLS | 1.26 | 6 of 6 | 1 of 18 |
| MFSQLFMYGSRNKHSVA | QASTRES | QQYDRLPLI | 1.28 | 6 of 6 | 1 of 18 |
| QLGMTLKELSKVTNNVA | EMTTRGT | QQYFRLPLA | 1.32 | 4 of 6 | 0 of 18 |
| KYYPSYLYESRNKNAVA | QASTRES | QQYHRLPLS | 1.32 | 6 of 6 | 1 of 18 |
| KLRQSTLYESRNKNSVA | TASTRES | QQYHRLPLS | 1.36 | 4 of 6 | 0 of 18 |
| HMSMLTLSGMRHRNAVA | QMTTREN | QQYDRLPLT | 1.38 | 3 of 6 | 0 of 18 |
| HMSMLTLQGMRHRNSVA | QMTTREN | QQYDHLPLA | 1.42 | 6 of 6 | 1 of 18 |
| KISQTFNVGTKNKNSLA | EMNTREF | QDYHRLPLS | 1.73 | 6 of 6 | 1 of 18 |
| KSSQSVLYESRNKNSVA | WASTRES | QQYERLPLS | 1.75 | 4 of 6 | 0 of 18 |
| KLREIIHVESKQKNNVA | DNSTRES | QDYHRLPLS | 1.82 | 5 of 6 | 0 of 18 |
| KLQQLVLYGSRNKNSVA | QASTRMV | QAYHRLPLS | 1.87 | 4 of 6 | 0 of 18 |
| KISMLMNFAQTNKNSIA | EMTTRES | QHYHRLPLS | 1.88 | 6 of 6 | 0 of 18 |
| MISQMYNMGQFAINSVA | QASERNT | QQYDRLPLI | 1.91 | 6 of 6 | 0 of 18 |
| KSSISVLGESRNKNSVA | WASTRES | QQYHRLPLS | 1.92 | 5 of 6 | 0 of 18 |
| MISQLYNMGSFAINSVA | QASERNL | QQYDRLPLI | 1.97 | 6 of 6 | 0 of 18 |
| SLAYTQHFGQAGGSAVA | EVQMREQ | QQYFRLPLG | 1.97 | 5 of 6 | 0 of 18 |
| KSSQSVLYESGNKNSVA | KASTRES | QQYAWLPLS | 1.99 | 6 of 6 | 0 of 18 |
| KHSQSVLYESHNKNSVA | WASTRES | QQYHRLPLS | 2.08 | 3 of 6 | 0 of 18 |
| MIAMGLRGVGRNKNSVA | NAQTRES | QHYHRLPLS | 2.12 | 5 of 6 | 1 of 18 |
| KSSQSVWYESRNKNSVA | HASTRES | QQYHDLPLS | 2.14 | 6 of 6 | 5 of 18 |
| KSSQSVLYESRNKNSVA | WASTRES | QQLVRLPLQ | 2.14 | 5 of 6 | 0 of 18 |
| KVSEFMKGLMMRTDSIA | DNTTRGQ | QQYDRLPLS | 2.17 | 5 of 6 | 0 of 18 |
| HVSESVFAQSKMRNSVA | ENSTREA | QQYDRLPLS | 2.17 | 6 of 6 | 1 of 18 |
| MISQLMNLGQFAINSVA | QAEEREN | QQYDRLPLI | 2.56 | 2 of 6 | 2 of 18 |
| MIYAANMELGRAANSIA | DNVTRYD | QQYERLPLS | 2.68 | 1 of 6 | 0 of 18 |
| HISQSVGMTSRNKNSVA | ENSTREA | QQYDRLPLS | 2.74 | 3 of 6 | 0 of 18 |
| KSSQSVLYDSRNKNSVA | CASTRES | QQYHRLPLS | 2.93 | 1 of 6 | 1 of 18 |
| KCQQSVLYEHRNSNSVA | WASTRES | QPYHRLPLS | nd | 0 of 6 | 0 of 18 |
| KIDMSLNYESHALNSIA | EEVMHTA | QQYDKLPLF | nd | 0 of 6 | 0 of 18 |
| MLSEVLHMLGVQKNSIA | DLVLRAN | QQYHRLPLG | nd | 0 of 6 | 0 of 18 |
| KLMHYKHGGNGTRNSVA | EMTIREY | QQYFHLPLN | nd | 0 of 6 | 0 of 18 |
| KSSDSVLYESRNKNSVA | YASTRES | QSYCRLPLS | nd | 0 of 6 | 0 of 18 |

The first 5 variants above that were never detected:

CDR-L1,CDR-L2,CDR-L3,mean log10 Kd (nM),replicates with signal,control signals
KCQQSVLYEHRNSNSVA,WASTRES,QPYHRLPLS,nd,0 of 6,0 of 18
KIDMSLNYESHALNSIA,EEVMHTA,QQYDKLPLF,nd,0 of 6,0 of 18
MLSEVLHMLGVQKNSIA,DLVLRAN,QQYHRLPLG,nd,0 of 6,0 of 18
KLMHYKHGGNGTRNSVA,EMTIREY,QQYFHLPLN,nd,0 of 6,0 of 18
KSSDSVLYESRNKNSVA,YASTRES,QSYCRLPLS,nd,0 of 6,0 of 18